Data set [1] deals with HCC cells. Kind of data set: Modulation of SMC cytotoxicity by agents that favor beta-elimination. As to conditions: more prominent together with overexpression of KYAT1.
Data set [2] concerns Native HCC cells. Kind of data set: HCC cell viability with SMC in the presence of alfaketoacid analogues, native HCC cells. It counts as cell-based. Here is the method:
Normal hepatocytes and malignant hepatocytes (HCC) were incubated in the presence of various concentrations of SMC. After 72 h, the ATP content of lysed cells, which is proportional to the number of viable cells, was measured using a luminescence-based CellTiter Glo Kit (Promega) according to manufacturer's protocol using a FLx100 Luminometer (BioTek).

Take indole pyruvic acid [IPA]: the “effect of the agent on the cytotoxicity of SMC” value in data set [1] is listed as “increase the cytotoxicity of SMC”. Besides, the “effect on the cytotoxicity of SMC compared to PPA” value in data set [2] was “even stronger effect on the cytotoxicity compared to PPA”.

Source of the values: patent US12310936B2, “Pharmaceutical compositions for the treatment of cancer” (Seleq Oy, priority 2018, dated 2025).
